## Binding of CDR-mutated scFvs to a peptide of the spike HR2 region

Source: Li et al. 2023 (doi:10.1038/s41467-023-39022-2), MIT Lincoln Laboratory and A-Alpha Bio; data file from the FLAb repository.

Target: peptide PDVDLGDISGINAS, taken from heptad repeat 2 (HR2) of SARS-CoV-2 spike.

Ab-14 is the parent antibody, in scFv form: VH, then a 15-residue (Gly4Ser)3 linker, then VL. The heavy chain is unchanged in all variants.
VH: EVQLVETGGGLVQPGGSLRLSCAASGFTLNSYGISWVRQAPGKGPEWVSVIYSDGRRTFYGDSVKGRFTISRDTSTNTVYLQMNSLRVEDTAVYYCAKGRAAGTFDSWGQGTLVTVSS
VL: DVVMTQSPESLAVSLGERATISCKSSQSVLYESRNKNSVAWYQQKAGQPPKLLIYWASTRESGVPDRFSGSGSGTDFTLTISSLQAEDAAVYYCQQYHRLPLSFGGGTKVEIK

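The parent was found by panning a naive human phage display library on the peptide. These sequences belong to a second round, designed from the earlier measurements on random variants of the parent. Their group label is 14L_En_Gen (En: ensemble of fine-tuned language models; Gen: genetic algorithm). In AlphaSeq, yeast of one mating type display the scFv and yeast of the other type display the target. Pairs that bind mate more often; barcode pairs of the diploids are counted by sequencing. Scores were corrected for input abundance and mapped to Kd with protein pairs of known affinity run in the same pool. There are six technical replicates.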

Variants are written as CDR1, CDR2 and CDR3 of the light chain (limits as in the source). Parent: KSSQSVLYESRNKNSVA, WASTRES, QQYHRLPLS. Values are log10 of the apparent Kd in nM; lower means stronger binding. "nd" marks a missing value. The strain was present, yet no cells mated with the target were sequenced in that replicate, which points to weak or no binding. The authors averaged sequences with at least three values out of six and counted those with two or fewer as poor binders. As a blank, each scFv also met three strains without target: over all light chain designs, 4% of these pairings were detected, typically at 2.64 and seldom below 1.59. Also given: how often the same scFv was detected with the empty control strains, with their mean in brackets. Values of this round are not directly comparable with the first-round values of the same sequences. Of ten entries with the parent sequence, four were seen in most replicates (averages 0.34 to 2.37), three in one and three in none, so single entries are noisy.

CDR-L1,CDR-L2,CDR-L3,"replicates, log10 nM",control signals
QIGMLLNFESYKINNVA,QMSTRVN,QQYDRLPLS,0.83 0.74 0.30 0.57 0.55 0.62,0 of 18
HITMGMYVSGRYKSNIA,QAEMREK,QQYDRLPLM,0.75 0.65 0.49 0.86 0.65 0.96,0 of 18
TISQLHNMGTFAINSVA,QASLRNE,QQYDRLPLI,2.59 0.82 1.05 2.17 1.31 1.43,0 of 18
KLSSITGHMQVEKNNVA,EMETREN,QQYNRLPLS,0.46 0.38 1.12 0.16 0.57 0.79,0 of 18
KVYSGINFESTAKNNIA,EEVMRTK,QQYARLPLS,0.53 0.36 0.30 0.36 0.42 0.79,1 of 18 (3.16)
HITYGLQVAGRHSKSIA,QAETRAK,QQYDRLPLI,0.95 1.10 0.67 1.07 1.04 1.14,1 of 18 (3.49)
TLSQMSGVESVKHNNVA,ENSTREE,QQYDRLPLA,nd nd nd nd nd nd,0 of 18
MVTQMAMTGMMSKRSVA,NAEQRED,QQYHRLPLI,nd nd nd nd 2.61 nd,0 of 18
MMSQVSGQGTRHRNNVA,QTETREP,QQYDRLPLV,0.63 0.84 0.74 0.58 0.87 1.02,0 of 18
MISQLMNVGQFAINSVA,QATIRNS,QQYDRLPLI,nd nd 2.87 nd 2.43 1.96,1 of 18 (2.58)
TLGYNTMVESIKKNNVA,EMSTRLN,QQYVRLPLA,0.39 0.63 0.82 0.25 0.22 0.31,0 of 18
KITATMRFEQKASNNIA,EVTLRSK,QQYMRLPLS,1.35 1.28 0.83 0.50 2.74 2.30,0 of 18
KLVNFMNRGTHHTSNIA,DAQERLD,QQYYRLPLA,1.70 1.27 0.15 0.52 0.44 0.96,0 of 18
KVSEFMRGLMGRKDSIA,DNVTRNK,QQYDRLPLS,2.32 2.21 1.76 2.59 1.75 1.71,0 of 18
MISQLYNMGQFAINSVA,QASQRNE,QQYDRLPLQ,0.95 1.27 1.15 1.44 1.31 1.40,0 of 18
KIGDTLNQLMTKKNNVA,DLVMREN,QQYHRLPLS,0.63 0.08 0.15 0.12 0.39 0.52,2 of 18 (1.94)
MISQLMNMGQFAINSVA,QASIRNY,QQYDRLPLM,1.06 0.63 0.67 0.43 0.91 0.80,0 of 18
KLYSVTGTEKIQGNNVA,EMETRER,QQYNRLPLS,0.52 0.47 0.31 0.33 0.72 0.52,0 of 18
KLYDMSALSVTNIRNVA,DNSTREA,QQYHRLPLS,0.36 -0.16 0.19 0.03 0.20 0.22,1 of 18 (2.06)
TLYGLSMSMAKNKNNVA,EMTTREK,QQYDRLPLV,1.63 1.05 1.85 1.27 0.83 1.05,1 of 18 (2.11)
TISQITSLFSQNINNVA,EVSTRLN,QQYDRLPLS,1.83 0.88 1.77 0.97 1.17 0.98,0 of 18
MLSEVLHMLGAKKNSIA,DLVLRAN,QQYHRLPLA,nd 0.81 nd nd 0.34 nd,0 of 18
KLSSITGTEKVHGNNVA,EMETRER,QQYNRLPLS,0.01 0.10 0.04 0.01 0.13 0.34,0 of 18
HMSHLTLGGMRARNSVA,QMTTREN,QQYDRLPLA,nd nd nd nd nd nd,0 of 18
TISMLSNHMTRNSNNVA,NMDMRED,QQYDRLPLS,0.15 0.47 0.15 0.21 0.16 0.36,1 of 18 (2.24)
HLKQVLNGVNKKMNSVA,HMNTREQ,QQYDHLPLV,0.99 0.64 0.93 0.75 0.76 1.02,2 of 18 (3.38)
KLSMITGHMSMSRNNVA,EMATREN,QQYDRLPLS,0.88 nd nd nd nd nd,0 of 18
TISQVMNTLSRQGNNVA,DLAERER,QQYFRLPLS,1.10 0.84 1.14 1.38 0.57 1.30,1 of 18 (2.04)
MIYGMDRELGRAANSIA,DNVTRYN,QQYERLPLS,1.97 2.13 nd 1.55 2.04 2.02,1 of 18 (3.42)
MISQLYNMGQFAINSVA,QASERNV,QQYDRLPLI,1.49 1.18 2.37 1.60 1.46 1.66,1 of 18 (1.91)
KVSEFMRGLMSRQDSIA,DNVTRNS,QQYDRLPLS,nd 1.84 0.94 nd nd 1.95,2 of 18 (2.57)
TISQMSTLFSQSINNVA,ETSTRLN,QQYDRLPLS,0.76 0.95 0.81 0.75 0.93 1.36,0 of 18
MVTQMAMTGMTNKRSVA,NAETREY,QQYFRLPLI,0.17 0.11 0.00 -0.09 0.09 0.26,2 of 18 (2.89)
HITMGMYVKGRHHSSIA,QAETRAY,QQYDRLPLI,1.39 1.32 1.94 1.14 2.46 2.22,2 of 18 (2.69)
KISQMVKVGATHSNSIA,EEVTRAN,QQYHRLPLS,0.44 0.15 0.26 0.05 0.08 0.15,1 of 18 (2.04)
IVSQLMLWGWHAKNSIA,EAQTRLN,QQYDRLPLM,nd 1.77 nd nd nd nd,1 of 18 (1.56)
MIYAANMELGRATNSIA,DNVTRYD,QQYERLPLS,2.16 2.41 3.29 2.69 2.43 2.29,1 of 18 (3.31)
MISQLYNMGQFAINSVA,QASQRNE,QQYERLPLM,nd 0.72 0.94 0.88 0.91 1.05,1 of 18 (3.30)
IVSQLMLIGMHAKNSIA,EASTRLN,QQYERLPLF,nd nd nd nd nd nd,0 of 18
MFSQMLAIGHKVSNSVA,QASTRFN,QQYERLPLI,1.01 1.06 0.81 1.05 0.61 1.00,0 of 18
MMSQVTGQGTRHRNNVA,QTSTREP,QQYDHLPLI,1.09 0.96 0.79 0.89 1.23 1.05,1 of 18 (3.40)
KVSGFMRGLMERKDSIA,DNETRQS,QQYDRLPLS,nd 1.95 nd 2.18 2.70 nd,1 of 18 (2.55)
MVSQLMVWGMRAKNSIA,EAQTRLN,QQYDRLPLF,1.28 1.10 0.56 0.45 1.71 0.90,2 of 18 (1.62)
HMSMLTLQGLRHRNAVA,QMTTREN,QQYDRLPLS,nd 1.55 0.90 1.68 1.59 1.44,1 of 18 (2.33)
QLSMITGHYQMIKNNVA,EMETREN,QQYDRLPLS,0.79 1.02 1.18 0.87 1.18 1.50,1 of 18 (2.85)
TISMVMNHMTKNKNNVA,NMDMREV,QQYDRLPLS,0.44 0.70 1.21 0.41 0.52 0.05,1 of 18 (1.76)
KVYGGINFQSSARNSIA,EEVMRTK,QQYARLPLS,1.12 0.73 0.94 0.68 0.90 0.64,0 of 18
TIGQTLMSGMRNRSNVA,EVSQRLN,QQYDRLPLL,2.34 3.47 0.98 3.46 2.01 1.87,0 of 18